Reference: ChEMBL document CHEMBL3393004, “Insights on the role of boron containing moieties in the design of new potent and efficient agonists targeting the β2 adrenoceptor” (Bioorg Med Chem Lett, 2015)

Protein sequences, listed by entry. Tags and fused reporters are not part of them.
UniProt Q8K4Z4, whole entry: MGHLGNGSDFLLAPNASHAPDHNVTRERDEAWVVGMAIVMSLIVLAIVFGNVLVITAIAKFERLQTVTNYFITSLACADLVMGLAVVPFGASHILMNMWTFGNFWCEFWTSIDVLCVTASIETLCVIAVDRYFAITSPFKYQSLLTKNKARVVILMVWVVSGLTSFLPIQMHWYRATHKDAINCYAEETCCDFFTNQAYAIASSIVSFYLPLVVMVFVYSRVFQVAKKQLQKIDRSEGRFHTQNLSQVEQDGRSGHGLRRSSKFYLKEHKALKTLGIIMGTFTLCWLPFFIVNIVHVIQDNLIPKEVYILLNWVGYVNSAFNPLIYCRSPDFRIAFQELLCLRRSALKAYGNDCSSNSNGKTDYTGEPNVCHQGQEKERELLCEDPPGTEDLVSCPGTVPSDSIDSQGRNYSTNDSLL

Columns and labels:
[1] = target: T1, Beta-2 adrenergic receptor (Cavia porcellus, UniProt Q8K4Z4); test: Agonist activity at adrenergic beta2 receptor in Hartley guinea pig tracheal ring at basal tone assessed as bronchorelaxation activity
[2] = target: T1, Beta-2 adrenergic receptor; test: Agonist activity at adrenergic beta2 receptor in Hartley guinea pig tracheal ring assessed as bronchorelaxation activity against histamine-induced contraction; design: species or system Trachea

Kd [1]: 110 nM
Kd [2]: 245 nM
SMILES: CC(C)(C)NCC(O)c1ccc(O)c(CO)c1 (configuration not stated) [ALBUTEROL]
